From US11707527B2, “Nanoscale drug carrier capable of passing through blood-brain barrier” (KUNSHAN XINYUNDA BIOTECH CO., LTD., priority 2017, dated 2023)

Columns and labels:
Type in all cases: cell-based
[1] = test system: human BBB brain endothelial cells hCMEC/D3; assay: Endocytosis and lysosome co-localization in human brain endothelial cells (confocal microscopy)
Method: Human BBB brain endothelial cells hCMEC/D3 slides (BD Biosciences) were placed in a 6-well plate (with well diameter of 34.8 mm, Corning, USA) for culturing above to a density of about 60%, then the experiment was conducted. 1 μM FITC-labeled H-ferritin above was added, and incubated respectively for 5 min and 6 min at 37° C. Then the cells were washed with 0.3% BSA/PBS for three times, and finally fixed with 4% paraformaldehyde. After being washed with PBS (pH7.4) for three times, cell nuclei were stained with DAPI (Roche Applied Science) 10 min at room temperature. After being washed by PBS for three times again, the slides were mounted with a mounting medium, and observed by laser confocal microscopy (Olympus FluoView FV-1000, Tokyo, Japan).
Human BBB brain endothelial cells hCMEC/D3 slides (BD Biosciences) were placed in a 6-well plate for culturing to a density of about 60%, and then the experiment was conducted. 1 μM FITC-labeled H-ferritin was added, and Alexa Fluor 488-labeled mouse anti-human TfR1 monoclonal antibodies (1:200, Clone: M-A712, Santa Cruz) were added in the control group for incubation for 4 h in an incubator. The cells were fixed with 4% paraformaldehyde after being washed with PBS for three times. […]

[2] = test system: human glioma U87-MG cells; assay: Co-localization with lysosome in human glioma cells (confocal microscopy); conditions: 1 μM FITC-labeled, 4 h
Method: Human glioma U87-MG cells slides (BD Biosciences) were placed in a 6-well plate (with a well diameter of 34.8 mm, Corning, USA) for culturing to a density of about 60%. 1 μM FITC-labeled H-ferritin was added and incubated for 4 h in an incubator. The cells were fixed for 5 min with 4% paraformaldehyde after being washed with PBS (pH7.4) for three times. Then 0.1% Triton X-100 was used for cell permeabilization. After being washed with PBS again, the cells were blocked with 5% goat serum (ZSGB-BIO) for 30 min at room temperature, and then incubated with Alexa Fluor®555-labeled antibody and lysosome marker molecule LAMP1 (1:200, clone H4A3; Invitrogen) for 1 h at 37° C. Finally, cell nuclei were stained with DAPI (1 μg/mL, Roche Applied Science) for 10 min at room temperature.

[3] = test system: human BBB brain endothelial hCMEC/D3 cells; assay: Specific binding of FITC-labeled ferritin to human brain endothelial cells (flow cytometry); conditions: 50 μg/ml FITC-labeled protein, 45 min, 4° C., hCMEC/D3, vs FITC-BSA
Method: Firstly, the invention proves in vitro that the receptor TfR1 of H-ferritin is highly expressed on human BBB brain endothelial hCMEC/D3 cells.
Human BBB brain endothelial hCMEC/D3 cells were cultured to about 1×10^5 (100×20 mm, dish Corning, USA) and digested with trypsin, then the cells were washed with 0.3% (w/v) BSA/PBS (pH7.4) for three times. […] The cells were washed with 0.3% BSA/PBS for three times, finally resuspended in PBS (pH7.4). And fluorescence of the samples was tested by flow cytometry (at a wavelength of 488 nm).

[4] = test system: human glioma U87-MG cells; assay: Specific binding to human glioma cells (flow cytometry); conditions: 50 μg/ml FITC-labeled, 45 min, 4° C.
Method: Human glioma U87-MG cells were cultured to about 1×10^5 and digested with trypsin. Then the cells were washed with 0.3% (w/v) BSA/PBS for three times. […] And then the cells were washed with 0.3% BSA/PBS for three times, finally resuspended in PBS. Fluorescence of the samples was measured by flow cytometry (wavelength 488).

For “HFn: 24-polymer cage protein self-assembled by H subunits of human ferritin, SEQ ID NO: 10, NCBI NP_002023.2”, the “endocytosis by human brain endothelial cells” value ([1]; 1 μM FITC-labeled, 37° C., 60 min, hCMEC/D3) was “effectively absorbed and endocytosed”, the “entering / co-localization with lysosome (LAMP1) in brain endothelial cells” value ([1]; hCMEC/D3, 4 h incubation) was “do not enter the lysosome” and the “entering lysosome (LAMP1) in glioma cells” value [2] was “almost all antibodies enter the lysosome”. For the same substance, the “specific binding with human brain endothelial cells” value [3] was “specifically, directly binds” and the “specific binding to human glioma cells” value [4] was “can directly bind”.
